From ChEMBL document CHEMBL1141989, “Amino acid conjugates as kappa opioid receptor agonists” (Bioorg Med Chem Lett, 2005)
“And” between values parts separate entries of the source, which are not always exact repeats. Equal entries are not always repeated.

Target: Opioid receptors; mu & kappa (Homo sapiens) (UniProt P41145+P35372)
Experiment: Selectivity of binding affinity of human kappa opioid receptor over human mu opioid receptor
Format: protein assay

In the case of `CN(C(=O)Cc1ccc(Cl)c(Cl)c1)[C@H](CN1CCCC1)c1ccccc1`, the Selectivity is reported as 1240 and 567.
